Results: ChEMBL document CHEMBL4325918, “Allosteric CB1 Receptor Modulators for the Treatment of CB1 Related Diseases and Conditions” (ACS Med Chem Lett, 2018)
pIC50: −log10 of the molar value.

Protein sequences, listed by entry. Tags and fused reporters are not part of them.
UniProt P21554, whole entry: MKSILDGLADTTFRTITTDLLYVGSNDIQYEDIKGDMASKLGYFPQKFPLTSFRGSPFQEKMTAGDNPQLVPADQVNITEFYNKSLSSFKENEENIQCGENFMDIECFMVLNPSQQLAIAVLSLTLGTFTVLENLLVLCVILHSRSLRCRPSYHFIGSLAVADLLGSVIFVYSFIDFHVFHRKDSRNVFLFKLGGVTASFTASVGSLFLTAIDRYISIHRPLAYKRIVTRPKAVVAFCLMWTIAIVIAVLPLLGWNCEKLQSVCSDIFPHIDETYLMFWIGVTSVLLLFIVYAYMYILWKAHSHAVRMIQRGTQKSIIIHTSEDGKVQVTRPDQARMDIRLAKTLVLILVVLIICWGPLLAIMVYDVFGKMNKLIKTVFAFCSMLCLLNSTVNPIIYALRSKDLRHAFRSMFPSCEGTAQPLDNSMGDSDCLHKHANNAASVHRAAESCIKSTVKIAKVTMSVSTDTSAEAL

Legend:
Cannabinoid receptor 1 = Cannabinoid receptor 1 (Homo sapiens, UniProt P21554); experiment: Allosteric modulation of CB1 receptor (unknown origin) assessed as inhibition of CP55940-induced [35S]GTPgammaS binding; type: functional
[1] = Clearance in Sprague-Dawley rat; type: ADME; conditions: in vivo

| CL [1] [µL/min/mg] | Compound | pIC50 (Cannabinoid receptor 1) |
| --- | --- | --- |
| – | O=C(Nc1ccc(Cl)cc1)Nc1cccc(-c2cccc(N3CCCC3)n2)c1 | 6.99 |
| < 4.6 | O=C(Nc1ccc(Cl)cc1)Nc1cccc(-c2ccc(F)cc2)c1 | – |
